# AlphaSeq binding of Ab-14 heavy chain variants to a spike HR2 peptide

Target peptide (SARS-CoV-2 spike, HR2 region): PDVDLGDISGINAS

Parent scFv Ab-14: VH joined to VL by the linker GGGGSGGGGSGGGGS. Changes lie in the heavy chain CDRs alone.
VH: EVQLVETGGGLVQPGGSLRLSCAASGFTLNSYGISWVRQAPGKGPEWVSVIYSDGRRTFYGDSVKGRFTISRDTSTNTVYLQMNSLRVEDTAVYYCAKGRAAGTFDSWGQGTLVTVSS
VL: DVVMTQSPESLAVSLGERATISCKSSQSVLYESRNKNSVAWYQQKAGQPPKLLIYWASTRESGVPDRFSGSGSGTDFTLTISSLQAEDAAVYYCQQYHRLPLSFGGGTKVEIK

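Library AAYL49 holds single substitutions and randomly drawn double and triple substitutions in the CDRs. In AlphaSeq, yeast of one mating type display the scFv and yeast of the other type display the target. After mating in shaken culture at 30 °C for 16 h, diploids were selected and their barcode pairs sequenced. Each replicate has its own calibration line, from reference interactions of the BCL2 family. Each pool was mated in three replicate cultures.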

The parent's heavy chain CDRs are GFTLNSYGIS, VIYSDGRRTFYGDSVK, GRAAGTFDS; each variant's own CDRs replace them letter for letter.
Values are log10 of the apparent Kd in nM; lower means stronger binding.
An entry "n.d." has no value in the source: the pair was not observed among the diploids in that replicate. This suggests poor binding but is not conclusive.
For reference, the parent read 0.65 as the reference entry and 4.11 (one replicate of three) as a member of this library.
As a blank, each scFv also met three strains without target: over library AAYL49, 15% of these pairings were detected, typically at 4.06 and seldom below 2.83. Also given: how often the same scFv was detected with the empty control strains, with their mean in brackets.

| CDR-H1 | CDR-H2 | CDR-H3 | log10 Kd (nM) by replicate | control signals |
|---|---|---|---|---|
| GFTLNSYGIS | VIASDGRRTFYGDCVK | GRAAGTFPS | n.d. / n.d. / n.d. | 0 of 9 |
| GFTSNSYGIS | VIDSDGRRTFYGDSVK | GRAAGTFDS | 5.33 / 3.39 / n.d. | 5 of 9 (4.29) |
| GFTLNSYGNS | VIYSDGRRTFYGDSVL | RRAAGTFDS | 5.82 / n.d. / n.d. | 4 of 9 (4.12) |
| RFTLNSYGIS | AIYSDGRPTFYGDSVK | GRAAGTFDS | 3.79 / n.d. / 5.78 | 8 of 9 (4.59) |
| GFTLNSYGIS | VIYSDGQRTFYGDSVN | GRAAMTFDS | n.d. / n.d. / n.d. | 0 of 9 |
| GFTLNSYGIS | VIYSDGRRTFRGDSVK | GRAAGGFDE | n.d. / n.d. / n.d. | 1 of 9 (4.26) |
| GFTLNSYGIS | SIYSDGRQTFYGDSVK | GRAAGTFDP | 4.34 / 5.12 / n.d. | 1 of 9 (4.57) |
| GFTLTSYGIS | VIYSDNRRTFYPDSVK | GRAAGTFDS | n.d. / n.d. / n.d. | 0 of 9 |
| GFTLNSYGIS | RIYSDGRRTFYGDSVK | GRAARTFDT | n.d. / 4.51 / n.d. | 4 of 9 (4.63) |
| GFTLNSYGIS | WIYMDGRRTFYGDSVK | GRAATTFDS | n.d. / n.d. / n.d. | 1 of 9 (3.31) |
| GFTLNPYGIS | VIYSDGRRTFWGDSVK | GRAAGTFDS | n.d. / n.d. / n.d. | 0 of 9 |
| GATLNSYGIS | FIYSDGRRTFYGPSVK | GRAAGTFDS | n.d. / n.d. / 3.59 | 0 of 9 |
| GFTLNSYGCS | VGYSDGRRTFYGDSVK | GRAAGTFDS | 4.83 / 4.47 / n.d. | 5 of 9 (4.46) |
| LFTLNSYGIS | VRYSDGRRTFYGDSVK | GRAAGTFDS | n.d. / n.d. / n.d. | 0 of 9 |
| GFTLNPYGIS | VIYCDGRRTFYGDSVK | GRAAGTFDS | n.d. / n.d. / n.d. | 1 of 9 (2.94) |
| GFTLNSYGFS | VIYDDGRRTFYGDSVK | GRAAGTFDS | n.d. / n.d. / n.d. | 0 of 9 |
| GFTLNSYGIS | VIYSDGRRTPNGDSVK | GRAAYTFDS | n.d. / n.d. / n.d. | 1 of 9 (3.99) |
| GFTKNSYGIS | VIYSDGRRTIYGDSVP | GRAAGTFDS | 6.52 / n.d. / 4.51 | 5 of 9 (4.65) |
| GFTLNSYWIS | VIYSDGRRTFYGDSVK | CRAAGTFDS | n.d. / n.d. / n.d. | 1 of 9 (4.36) |
| VFTYNSYGAS | VIYSDGRRTFYGDSVK | GRAAGTFDS | n.d. / n.d. / n.d. | 0 of 9 |
| GFTLNSYGIS | VIYSDGRREFYDDSVK | GRAAPTFDS | 4.83 / 3.87 / n.d. | 2 of 9 (4.47) |
| GFTLFSYGIS | VIYSDGRRTFGGDSVK | GRAALTFDS | n.d. / 4.89 / n.d. | 2 of 9 (3.87) |
| GFTNNSYGIS | VIYSDNRRTFYGDSAK | GRAAGTFDS | n.d. / 2.35 / n.d. | 0 of 9 |
| GFTRNSYGIS | VCYSDGRRTFYGDSVK | GRATGTFDS | n.d. / 5.00 / n.d. | 2 of 9 (4.16) |
| GFTLNSYGIS | QIGSDIRRTFYGDSVK | GRAAGTFDS | n.d. / n.d. / n.d. | 0 of 9 |
| GFTNNSYKIL | VIYSDGRRTFYGDSVK | GRAAGTFDS | n.d. / n.d. / n.d. | 2 of 9 (4.21) |
| GGTLNSYGIS | VIYSDGRRTLFGDSVK | GRAAGTFDS | n.d. / n.d. / n.d. | 1 of 9 (3.88) |
| GFTLCSYGIS | VIYQDGRRTFYGDSVK | GRAAWTFDS | n.d. / 3.94 / 3.44 | 8 of 9 (4.37) |
| LFTLNSYGIS | VIYSSGRRTFYGDSVK | GRAAYTFDS | n.d. / n.d. / n.d. | 0 of 9 |
| GFTLNSYGIS | VIYSDGRRTFYGDSVK | GRAAGTFDR | 1.55 / 1.66 / 1.83 | 4 of 9 (4.71) |
| GFTLNSYGIS | PIYSDGRRTFYGDSVK | GRAAGTLDS | n.d. / n.d. / n.d. | 1 of 9 (4.52) |
| GNTLNSYGQS | VIYSDGRRTFYGDSLK | GRAAGTFDS | n.d. / n.d. / n.d. | 0 of 9 |
| DFTLNSYGIS | VIYSDGRRTFYGDSVK | GRAAGTHDS | 3.42 / 2.61 / n.d. | 0 of 9 |
| GFTLNSYGII | VIYSDGRRTFFGDSVK | GRFAGTFDS | 6.55 / n.d. / n.d. | 1 of 9 (4.30) |
| GFTSNSYGIS | VIYIDGRRTFYGDSVK | GRQAGTFDS | n.d. / n.d. / n.d. | 2 of 9 (3.55) |

Excerpt, the final 5 entries:

{"CDR-H1": "GFTLNSYGIS", "CDR-H2": "PIYSDGRRTFYGDSVK", "CDR-H3": "GRAAGTLDS", "log10 Kd (nM) by replicate": "n.d. / n.d. / n.d.", "control signals": "1 of 9 (4.52)"}
{"CDR-H1": "GNTLNSYGQS", "CDR-H2": "VIYSDGRRTFYGDSLK", "CDR-H3": "GRAAGTFDS", "log10 Kd (nM) by replicate": "n.d. / n.d. / n.d.", "control signals": "0 of 9"}
{"CDR-H1": "DFTLNSYGIS", "CDR-H2": "VIYSDGRRTFYGDSVK", "CDR-H3": "GRAAGTHDS", "log10 Kd (nM) by replicate": "3.42 / 2.61 / n.d.", "control signals": "0 of 9"}
{"CDR-H1": "GFTLNSYGII", "CDR-H2": "VIYSDGRRTFFGDSVK", "CDR-H3": "GRFAGTFDS", "log10 Kd (nM) by replicate": "6.55 / n.d. / n.d.", "control signals": "1 of 9 (4.30)"}
{"CDR-H1": "GFTSNSYGIS", "CDR-H2": "VIYIDGRRTFYGDSVK", "CDR-H3": "GRQAGTFDS", "log10 Kd (nM) by replicate": "n.d. / n.d. / n.d.", "control signals": "2 of 9 (3.55)"}

From the AlphaSeq antibody data of Engelhart et al. 2022 (doi:10.1038/s41597-022-01779-4), copy in the FLAb collection.